# Measured values: paper PMC7954990 (European journal of medicinal chemistry, 2021)
# System: MDCK cell line
# Assay: MDCK cell permeability assay
# Format: in vitro ADME
# Settings: 1 μM, 2 h
smiles,measurement,setting,value
"Cc1ccc(NC(=O)c2ccc(CN3CCN(C)CC3)cc2)cc1Nc1nccc(-c2cccnc2)n1 [Imatinib, imatinib]","Papp (A-B) (10^−6, cm/s)",apical to basolateral,"7.69 10^−6, cm/s"
same,"Papp (B-A) (10^−6, cm/s)",basolateral to apical,"6.50 10^−6, cm/s"
